{"source": "patent US5916925A", "about": "“Pharmaceutical composition for treatment of dementia” (Takeda Chemical Industries, Ltd., priority 1996, dated 1999)", "test": "in vivo", "details": "mouse"}
{"smiles": "COC1=C(OC)C(=O)C(CCCCCCCCCCO)=C(C)C1=O", "note": "[idebenone, 6-(10-hydroxydecyl) -2,3-dimethoxy-5-methyl-1,4-benzoquinone]", "values": [{"measurement": "LD50", "value": "≥ 10000", "unit": "mg/kg"}]}
